The text below walks through data of ChEMBL document CHEMBL1121943, “Benzeneacetamide amines: structurally novel non-m mu opioids” (1982).

The species entered for the experiment is Mus musculus. The experiment in a line: Tested for effective dose required to produce narcotic stimulation in mice; not active.

Calls of active or inactive are those of the source. No cut-off for these calls is given here.

With `CN(C(=O)Cc1ccc(Cl)c(Cl)c1)C1CCCCC1N1CCCC1` (stereo unspecified), the ED50 entry was “inactive”.
